Assay results taken from US6649753B2, “Stable salts of S-adenosyl-L-methionine (SAMe) and the process for their preparation” (Orchid Chemicals & Pharmaceuticals Ltd., priority 2001, dated 2003).
Where two headings read alike, the source gives them in different places.

Format: physicochemical
Conditions: for SAMe Residual Ratio: 40-45° C. with 70-75% Relative Humidity
Protocol: Assessment of stability of the above SAMe salts has been done as per the ICH guidelines at 40-45° C. with 70-75% Relative Humidity and an improved HPLC method has been employed which resolves all the impurities formed on degrading SAMe (Table I). This method of HPLC analysis is the best method known so far to study stability of SAMe and has been validated as per the ICH guidelines. The details of the HPLC method followed and the accelerated stability report are as under:
Column=YMC-ODS-A, 4.6 mm×25 cm, C-18, 5 micron
Buffer=A mixture of 0.02 M citric acid & 0.01 M sodium dihydrogen orthophosphate
Mobile phase=using acetonitrile water with citric acid buffer
Detector=UV at 254 nm wavelength
Flow rate=1.5 ml per min.
Column temperature=25° C.
The percentage of SAMe after storage at the specified temperature was determined using the content of SAMe after storage and the content of SAMe before storage, i.e., initial content of SAMe in the corresponding salt using the following equation: [formula]

[1] = accelerated storage period 30 days
[2] = accelerated storage period 60 days
[3] = accelerated storage period 90 days

stability at accelerated temperatures | Substance | SAMe Residual Ratio [1] [%] | SAMe Residual Ratio [2] [%] | SAMe Residual Ratio [3] [%]
– | SAMe disulfate phenol-2,4,6-trisulfonate or its sodium salt [Salt III] | 98.0 | 96.3 | 95.8
– | SAMe disulfate resorcinol-4,6-disulfonate or its sodium salt [Salt I] | 97.7 | 95.5 | 95.0
poor stability | SAMe disulfate salt with analogous hydroquinone-2,3-disulphonic acid or its sodium salt | – | – | –
